Consider one compound from ChEMBL document CHEMBL1908284, “Rational use of in vitro P-glycoprotein assays in drug discovery” (J Pharmacol Exp Ther, 2001).

Sequences of proteins named here, by UniProt entry; tags and fusion partners are left off.
UniProt P08183, whole entry: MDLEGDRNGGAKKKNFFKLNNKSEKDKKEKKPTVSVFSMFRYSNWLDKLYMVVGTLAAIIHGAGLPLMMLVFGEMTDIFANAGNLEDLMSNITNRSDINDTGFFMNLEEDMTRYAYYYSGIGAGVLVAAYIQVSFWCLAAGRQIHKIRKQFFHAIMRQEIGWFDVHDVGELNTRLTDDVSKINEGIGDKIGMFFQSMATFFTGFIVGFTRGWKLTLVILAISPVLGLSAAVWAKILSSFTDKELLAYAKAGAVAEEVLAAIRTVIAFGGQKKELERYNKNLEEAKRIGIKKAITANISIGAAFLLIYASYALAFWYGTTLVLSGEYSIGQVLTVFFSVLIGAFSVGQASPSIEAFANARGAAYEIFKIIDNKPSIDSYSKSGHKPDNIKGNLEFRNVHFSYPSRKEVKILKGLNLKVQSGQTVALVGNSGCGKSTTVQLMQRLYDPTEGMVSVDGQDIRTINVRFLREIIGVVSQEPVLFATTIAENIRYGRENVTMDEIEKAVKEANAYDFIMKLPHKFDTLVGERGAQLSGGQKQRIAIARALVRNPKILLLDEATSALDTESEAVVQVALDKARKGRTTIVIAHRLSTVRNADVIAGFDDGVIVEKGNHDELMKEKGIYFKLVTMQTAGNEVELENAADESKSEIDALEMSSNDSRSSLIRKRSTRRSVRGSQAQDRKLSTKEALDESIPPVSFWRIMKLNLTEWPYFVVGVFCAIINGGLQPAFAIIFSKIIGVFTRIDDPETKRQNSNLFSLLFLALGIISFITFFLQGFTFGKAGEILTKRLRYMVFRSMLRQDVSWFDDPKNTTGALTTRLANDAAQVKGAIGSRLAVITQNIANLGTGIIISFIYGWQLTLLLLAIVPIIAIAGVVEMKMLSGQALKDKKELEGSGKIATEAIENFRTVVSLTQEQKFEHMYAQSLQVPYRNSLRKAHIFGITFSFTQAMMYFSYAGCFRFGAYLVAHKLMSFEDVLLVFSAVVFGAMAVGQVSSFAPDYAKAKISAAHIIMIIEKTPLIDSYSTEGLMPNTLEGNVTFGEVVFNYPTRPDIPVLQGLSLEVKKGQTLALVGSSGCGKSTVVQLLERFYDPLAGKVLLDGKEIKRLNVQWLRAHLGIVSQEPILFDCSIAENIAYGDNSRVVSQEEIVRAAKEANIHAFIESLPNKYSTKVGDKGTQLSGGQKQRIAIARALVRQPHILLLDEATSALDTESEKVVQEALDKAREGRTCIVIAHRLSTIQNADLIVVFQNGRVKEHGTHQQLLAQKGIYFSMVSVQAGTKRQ

This series addresses ATP-dependent translocase ABCB1 (Homo sapiens, UniProt P08183). The settings on record: spodoptera frugiperda, sf9, 20 µM.
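Note: Compound-stimulated ATPase activity measured in membrane preparations of MDR1-expressing Sf9 cells.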

For the compound `CCN(CC)CC(=O)Nc1c(C)cccc1C` [LIDOCAINE], the Ratio_ATPase activity was determined as 1.01.
